Target: ALK kinase (Homo sapiens, UniProt Q9UM73)
Assay: ALK protein degradation activity by Western blot in H2228 cells
Assay type: cell-based
Set-up: H2228 cell lines (human non-small cell line lung cancer cells, available from ATCC); host or cells: H2228 (human non-small cell lung cancer cells); the other entry of the earlier key: EML4 (Q9HC35, Echinoderm microtubule-associated protein-like 4)
Conditions: NCI-H2228, 24 h, read-out: ALK degradation activity

By UniProt entry, the sequences of proteins in these tests, tags left out. Chains listed by the source or under a name are the forms on record and can include a tag or linker.
UniProt Q9UM73, with tags, fused parts or gaps: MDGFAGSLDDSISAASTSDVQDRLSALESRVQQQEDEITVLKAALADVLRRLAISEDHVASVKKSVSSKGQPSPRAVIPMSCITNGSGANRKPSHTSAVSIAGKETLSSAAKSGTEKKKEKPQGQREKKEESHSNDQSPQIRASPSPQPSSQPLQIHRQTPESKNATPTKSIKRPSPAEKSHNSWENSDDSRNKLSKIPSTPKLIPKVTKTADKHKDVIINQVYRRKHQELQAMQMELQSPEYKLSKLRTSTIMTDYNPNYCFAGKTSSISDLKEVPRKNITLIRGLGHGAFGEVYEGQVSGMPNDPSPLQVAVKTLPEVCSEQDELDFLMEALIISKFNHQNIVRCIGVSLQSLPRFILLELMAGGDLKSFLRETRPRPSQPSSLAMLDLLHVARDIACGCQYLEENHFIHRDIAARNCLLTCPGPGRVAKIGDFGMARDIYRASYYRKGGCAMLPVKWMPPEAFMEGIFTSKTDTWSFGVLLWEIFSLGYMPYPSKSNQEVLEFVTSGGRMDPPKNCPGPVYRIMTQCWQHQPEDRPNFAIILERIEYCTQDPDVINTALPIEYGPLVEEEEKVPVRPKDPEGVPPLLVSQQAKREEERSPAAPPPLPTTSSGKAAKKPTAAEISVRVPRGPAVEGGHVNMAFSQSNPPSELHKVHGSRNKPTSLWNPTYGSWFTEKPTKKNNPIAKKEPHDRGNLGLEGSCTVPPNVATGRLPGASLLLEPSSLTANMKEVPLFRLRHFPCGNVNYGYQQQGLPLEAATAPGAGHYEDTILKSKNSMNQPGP

inhibition at 1 µM: > 90%
Structure (SMILES): Cc1cc(Nc2ncc(Cl)c(Nc3ccccc3S(=O)(=O)C(C)C)n2)c(OC(C)C)cc1C1CCN(CC(=O)NCCOCCNc2cccc3c2C(=O)N(C2CCC(=O)NC2=O)C3=O)CC1 (stereo not shown) [Compound 34]

Source: US11485726B2, “Compound for inhibiting and degrading tyrosine protein kinase ALK” (SHANGHAI MEIZER PHARMACEUTICALS CO., LTD., priority 2017, dated 2022)
